# Data as given in ChEMBL document CHEMBL3734667, “Antiviral activity of benzotriazole derivatives. 5-[4-(Benzotriazol-2-yl)phenoxy]-2,2-dimethylpentanoic acids potently and selectively inhibit Coxsackie Virus B5” (Bioorg Med Chem, 2015).
# Test: Selectivity index, ratio of CC50 for MDBK cells to EC50 for BVDV
# Design: species or system Bovine viral diarrhea virus 1
smiles,measurement,value
NC(=O)c1ncn([C@@H]2O[C@H](CO)[C@@H](O)[C@H]2O)n1 [RIBAVIRIN],Ratio CC50/EC50,>12.5
